The record followed here is PubChem BioAssay AID1671193 (National Center for Advancing Translational Sciences (NCATS), 2021).

Several values for one entry are separate records, joined by “and”; a condition that tells them apart may be missing. Equal values may be shown once. The entries are a selection whose mix differs from that of the whole data set. Inconclusive results are not listed. Activity calls are given as the source filed them. Calls follow the shape of the dose curve; as a rule, active = well fitted cell-killing curve with a large enough effect; inconclusive = small, poorly fitted or top-dose-only effect, or effect the other way; inactive = flat fitted curve, though single readings scatter.

The nature of the test: GF-AFC viability counterscreen for inhibitors of alpha-synuclein gene (SNCA) expression. Also: nearly all actives have a fitted effect of over 30% in size. As to conditions: HEK-293-SNCA-luc viability, GF-AFC fluorescence, 24 h; at 57.1 µM (top of the series) unless noted. The source says: Assay Submitter (PI): Daniel R. Scoles Ph.D.
Department of Neurology, University of Utah, Salt Lake City, Utah
Accumulation of alpha-synuclein is a main underlying pathological feature of Parkinson's disease (PD) and alpha-synucleinopathies, for which lowering expression of the alpha-synuclein gene (SNCA) is a potential therapeutic avenue. Using a cell-based luciferase reporter of SNCA expression we performed a quantitative high throughput screen (qHTS) of 155,885 compounds in dose response. The screening assay was generated using genome editing to insert the luciferase gene downstream and in frame of the SNCA gene in HEK-293 cells (1). A viability counterscreen using GF-AFC was used to eliminate cytotoxic and false positive compounds. After in silico analysis (clustering, removal of frequent hitter nuisance chemotypes), inhibitor compounds from the primary screen were selected for follow up and re-tested at 11-doses in the SNCA-luc cells (luciferase and GF-AFC confirmation), and in CMV-luc expressing cell line to flag general transcriptional repressors.
Described herein are the results of the GF-AFC viability counterscreen for SNCA inhibitors; inactivity (no decrease in fluorescence signal, not cytotoxic) is the desired output for this assay.
1. Dansithong, W., Paul, S., Scoles, D. R., Pulst, S. M., and Huynh, D. P. (2015) Generation of SNCA Cell Models Using Zinc Finger Nuclease (ZFN) Technology for Efficient High-Throughput Drug Screening. PLoS ONE 10, e0136930.
SEQUENCE No. (e.g., 1, 2, 3, etc.); […] (e.g., Cells, Incubation, Reagent, etc.); VALUE; DESCRIPTION
1; Cells; 4 uL; Dispense 1500 HEK-293-SNCA-luc cells/well into Greiner 1536-well white / solid bottom tissue culture treated plate. The plate was covered with metal lids with gas-exchange holes.
2; Incubate; 24 hours; Incubate at 37C, 5% CO2, 95% RH.
3; Compounds; 23 nL; Compounds and controls were transferred via a Kalypsys Pin Tool (Wako USA) equipped with a 1536-slotted pin array. The plate was covered with metal lids with gas-exchange holes.
4; Incubate; 24 hours; Incubate at 37C, 5% CO2, 95% RH.
5; Dispense; 1 uL; Dispense Gly-Phe-7-amino-4-trifluoromethylcoumarin (GF-AFC, prepared at 125 uM in PBS) was added. The plate was covered with metal lids with gas-exchange holes.
6; Incubate; 30 min; Incubate at 37C, 5% CO2.
7; Detector; Fluorescence; Measure fluorescence with ViewLux microplate reader (PerkinElmer) equipped with 405/10 excitation and 540/25 emission filters.
8; Dispense; 3 uL; Dispense ONE-Glo ([…]) lucifase detection reagent was added to each well. Plates were covered with metal lids with gas-exchange holes.
9; Incubate; 15 min; Incubate at room temperature.
10; Detector; Luminescence; Measure luminescence with ViewLux microplate reader (PerkinElmer) equipped with clear filters.
NOTES (numbers refer to sequence above)
1; HEK-293-SNCA-luc were cultured and suspended in phenol-red free DMEM (4.5 g/L glucose, 25 mM HEPES, cat #21063 (Thermo)).
3; Compounds were added to the assay plate in an 11-point intra plate dose response, 1:3 titration in DMSO with a final concentration range of […]. Vehicle-only plates, with DMSO being pin-transferred to every well, were inserted at the beginning of screening runs to confirm expected assay performance. Activity was normalized to wells containing medium only (-100% activity, full inhibition) and SNCA-luc cells treated with DMSO vehicle control (0% activity), contained on the same plate as test samples.
10; Signals were analyzed, and dose-response curves were fit using the Hill equation. Compounds in curve classes -1.1, -1.2, -2.1, -2.2 in the SNCA-luc assay were considered active. Compounds were eliminated from further consideration if also active (curve class -1.1, -1.2, -1.3, -1.4, -2.1, -2.2, -2.3, -2.4) in the GF-AFC cytotoxicity assay.
Background: A counterscreen serves to expose hits that act by an unwanted route or on another target.
Turning to `CNCc1cccc(C)n1`, the activity change, negative = cytotoxicity was inactive: -8.38% [at 87.6 µM].

Consider `CN(C(=O)Cc1ccc(Cl)c(Cl)c1)[C@@H]1CC[C@]2(CCCO2)C[C@H]1N1CCCC1`, for which the activity change, negative = cytotoxicity is inactive: 0.0972%.

Turning to `CN(C(=O)Cc1ccc(Cl)c(Cl)c1)[C@H]1CC[C@@]2(CCCO2)C[C@@H]1N1CCCC1`, the activity change, negative = cytotoxicity was inactive: 28.4% [at 23.9 µM].

In the case of `CN(C(=O)Cc1ccccc1)[C@@H]1CC[C@]2(CCCO2)C[C@H]1N1CCCC1`, the activity change, negative = cytotoxicity is inactive: -10.2%.

With `CCn1c(=O)n([C@@H]2CCN(CC3CCCCCCC3)C[C@H]2CO)c2ccccc21`, the activity change, negative = cytotoxicity was inactive: -11.2%.

Consider `NC(=O)Nc1ccc([As](=O)(O)O)cc1`, for which the activity change, negative = cytotoxicity is inactive: -14.2% [at 23.9 µM].

On to `CCn1c(=O)n([C@@H]2CCN(CC3CCCCCCC3)C[C@@H]2CO)c2ccccc21`, for which the activity change, negative = cytotoxicity was inactive: 3.28%.

For the compound `CN(CCCl)Cc1cc(Cl)c(NC2=NCCN2)c(Cl)c1`, the activity change, negative = cytotoxicity is inactive: 3.19%.

In the case of `CNCc1cc2ccccc2o1`, the activity change, negative = cytotoxicity is inactive: 2.61% [at 87.6 µM].

In the case of `CN(C)C1(c2ccccc2)CCC2(CC1)OCCc1c2[nH]c2ccc(F)cc12` (stereo unspecified), the activity change, negative = cytotoxicity is inactive: -30.7%.

`CN(C(=O)Cc1ccccc1)[C@H]1CC[C@@]2(CCCO2)C[C@@H]1N1CCCC1`: the activity change, negative = cytotoxicity was inactive: -0.0823% [at 23.9 µM].

Regarding `Cc1cc([N+](=O)[O-])cc([N+](=O)[O-])c1O`, the activity change, negative = cytotoxicity is inactive: -21.2%.

`CN(C(=O)Cc1ccc(Cl)c(Cl)c1)[C@@H]1CCCC[C@@H]1N1CCCC1`: the activity change, negative = cytotoxicity was inactive: -10%.

As for `CN(C(=O)Cc1ccc(Cl)c(Cl)c1)[C@H]1CCCC[C@H]1N1CCCC1`, the activity change, negative = cytotoxicity was inactive: 1.23%.

Regarding `O=C(O[C@H]1CN2CCC1CC2)C1NCc2ccccc2[C@@H]1c1ccccc1` (stereo partly specified), the activity change, negative = cytotoxicity is inactive: -2.62%.

Consider `CN(C(=O)Cc1ccc(Cl)c(Cl)c1)[C@H]1CCCC[C@@H]1N1CCCC1`, for which the activity change, negative = cytotoxicity was inactive: 1.23% and inactive: 5.04%.
